These results are taken from patent US20220041681A1 (MEDIMMUNE LIMITED, priority 2016, published 2022).

The test system of data set [1] is overweight or obese subjects with type 2 diabetes mellitus (T2DM). Nature of the data set: Multiple-ascending dose study Part II (Cohorts 5 and 6). The format is in vivo, human. As for the experimental part: A randomized, double-blind, multiple-ascending dose study is performed. This study consists of 2 cohorts: cohort 5 and cohort 6. […] Cohorts 5 and 6 have approximately 32 subjects total and are run in parallel.
The study consists of an inpatient up-titration evaluation period beginning on Day 3 for both Cohorts 5 and 6 and an outpatient follow-up period. The first 4 days and the final day of dosing at 300 μg are inpatient.
Subjects are admitted to the clinic as described in Example 5 for Cohorts 1-4. […] Subjects have a second inpatient period for the initiation of the 300 μg dose ending on the fourth day at that dose followed by at-home self administration.
Additional time points include before commencing the 300 μg dose (Day 16 for Cohort 5 and Day 11 for Cohort 6), and at the end of dosing (Day 22 for Cohort 5 and Day 17 for Cohort 6). The MMT are performed as described in Example 5.

The test system is the same in data set [2]. Put plainly: Phase 1/2 multiple-ascending dose study Part I (Cohorts 1-4).

Regarding `CCCCCCCCCCCCCCCC(=O)N[C@@H](CCC(=O)NCCCC[C@H](NC(=O)[C@H](CC(=O)O)NC(=O)[C@H](CO)NC(=O)C(NC(=O)[C@H](Cc1ccccc1)NC(=O)C(NC(=O)CNC(=O)[C@H](CCC(N)=O)NC(=O)[C@H](CO)NC(=O)[C@@H](N)Cc1cnc[nH]1)[C@@H](C)O)[C@@H](C)O)C(=O)N[C@@H](CO)C(=O)N[C@@H](CCC(=O)O)C(=O)N[C@@H](Cc1ccc(O)cc1)C(=O)N[C@@H](CC(C)C)C(=O)N[C@@H](CC(=O)O)C(=O)N[C@@H](CO)C(=O)N[C@@H](CCC(=O)O)C(=O)N[C@@H](CCCNC(=N)N)C(=O)N[C@@H](C)C(=O)N[C@@H](CCCNC(=N)N)C(=O)N[C@@H](CC(=O)O)C(=O)N[C@@H](Cc1ccccc1)C(=O)N[C@H](C(=O)N[C@@H](C)C(=O)N[C@@H](Cc1c[nH]c2ccccc12)C(=O)N[C@@H](CC(C)C)C(=O)N[C@@H](CCC(=O)O)C(=O)N[C@@H](C)C(=O)NCC(=O)NCC(=O)O)C(C)C)C(=O)O` (some centres unmarked) [Peptide G933], in data set [1] (Cohort 5, 3 patients), the patients reporting nausea is recorded as 27.3% and the patients reporting vomiting was 27.3%. In data set [1] (Cohort 6, 5 patients), the patients reporting nausea amounted to 41.7%. For the same compound, the “patients with decreased appetite” value in data set [2] (Cohort 3, six patients) is 85.7%. Besides, the “increase in heart rate” value in data set [2] (Cohort 4, Day 13) is listed as 12.8 bpm. Besides, the patients with nausea in data set [2] (Cohorts 1-3, 6 patients) worked out at 31.6%. Further, the “patients with cardiac adverse events” value in data set [2] (Cohorts 1-3, seven patients) is recorded as 36.8%. In addition, the “patients with gastrointestinal (GI) adverse events” value in data set [2] (Cohorts 1-3, thirteen patients) is on record as 68.4%.
